The text below walks through data of patent publication US20260022143A1, “Cyclic Peptide Inhibitors of IL-23” (JANSSEN PHARMACEUTICA NV, priority 2022, published 2026).

The first assay addresses T1, IL-23R (Homo sapiens, UniProt Q5VWK5).
T1 construct: host or cells: HEK293
T1 sequence (Q5VWK5 24-629): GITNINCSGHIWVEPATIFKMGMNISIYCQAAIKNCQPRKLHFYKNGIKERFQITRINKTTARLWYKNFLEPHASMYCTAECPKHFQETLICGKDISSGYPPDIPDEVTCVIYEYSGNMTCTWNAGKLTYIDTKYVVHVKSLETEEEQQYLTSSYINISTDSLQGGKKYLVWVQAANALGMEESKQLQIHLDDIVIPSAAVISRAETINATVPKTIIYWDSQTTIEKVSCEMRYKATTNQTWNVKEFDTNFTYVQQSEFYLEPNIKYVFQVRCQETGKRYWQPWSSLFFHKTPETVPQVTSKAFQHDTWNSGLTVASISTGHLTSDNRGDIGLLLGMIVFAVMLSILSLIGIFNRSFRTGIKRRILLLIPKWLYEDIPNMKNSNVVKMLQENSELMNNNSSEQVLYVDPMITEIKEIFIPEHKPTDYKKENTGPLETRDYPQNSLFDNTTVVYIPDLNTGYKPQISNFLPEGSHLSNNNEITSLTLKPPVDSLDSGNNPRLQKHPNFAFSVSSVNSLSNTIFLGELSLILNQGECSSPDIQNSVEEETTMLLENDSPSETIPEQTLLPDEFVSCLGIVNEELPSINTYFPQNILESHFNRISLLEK
The experiment in a line: IL23R Reporter Assay. The format is cell-based. The conditions noted are these: HEK293 cells containing IL-23R, IL-12RP1 and STAT-inducible firefly luciferase reporter; 10 ng/mL IL-23 (EC90); 5 h at 37° C.; read-out: IL23R Reporter Assay. A general note: A reporter such as luciferase makes a cellular process visible.
As for `COCC[N+](C)(C)CCc1cn(CCOc2ccc(C[C@H](NC(=O)[C@H]3NC(=O)[C@H](CCCCNC(C)=O)NC(=O)[C@H](Cc4c[nH]c5c(C)cccc45)NC(=O)[C@H]([C@@H](C)O)NC(=O)[C@H](CC(N)=O)NC(=O)[C@@H](NC(C)=O)C(C)(C)SSC3(C)C)C(=O)N[C@@H](Cc3ccc4ccccc4c3)C(=O)NC3(C(=O)N[C@@H](CCCCNC(C)=O)C(=O)N[C@@H](CC(N)=O)C(=O)N[C@@H](Cc4cccnc4)C(=O)N(C)CC(N)=O)CCOCC3)cc2)nn1` [compound 249], the IC50 is 0.0036 µM.

Turning to `CC(=O)NC[C@H](NC(=O)C1(NC(=O)[C@H](Cc2ccc3ccccc3c2)NC(=O)[C@H](Cc2ccc(OCCN(C)C)cc2)NC(=O)[C@H]2NC(=O)[C@H](CCCCN(C)C(C)=O)NC(=O)[C@H](Cc3c[nH]c4c(C)cccc34)NC(=O)[C@H]([C@@H](C)O)NC(=O)[C@H](CC(=O)N(C)C)NC(=O)[C@@H](NC(=O)CCCCC[N+](C)(C)C)C(C)(C)SSC2(C)C)CCOCC1)C(=O)N[C@@H](CC(N)=O)C(=O)N[C@@H](Cc1cccnc1)C(=O)N(C)CC(=O)N(C)C` [compound 133, 5cpaCO-Pen(3)-N(N(Me)2)-T-7MeW-K(NMeAc)-Pen(3)-AEF(N(Me)2)-2Nal-THP-Dap(Ac)-N-3Pya-Sar-CON(Me)2], the IC50 amounted to 0.0019 µM.

As for `CC(=O)NCCCC[C@@H]1NC(=O)[C@H](Cc2c[nH]c3c(C)cccc23)NC(=O)[C@H]([C@@H](C)O)NC(=O)[C@H](CC(N)=O)NC(=O)[C@@H](NC(C)=O)C(C)(C)SSC(C)(C)[C@@H](C(=O)N[C@@H](Cc2ccc(OCCN)cc2)C(=O)N[C@@H](Cc2ccc3ccccc3c2)C(=O)NC2(C(=O)N[C@@H](CCCCN(C)C(C)=O)C(=O)N[C@@H](CC(N)=O)C(=O)N[C@@H](Cc3cccnc3)C(=O)N(C)CC(N)=O)CCOCC2)NC1=O` [compound 59], the IC50 stood at 0.0047 µM.

Turning to `CC(=O)NCCCC[C@@H]1NC(=O)[C@H](Cc2c[nH]c3c(C)cccc23)NC(=O)[C@H]([C@@H](C)O)NC(=O)[C@H](CC(N)=O)NC(=O)[C@@H](NC(C)=O)C(C)(C)SSC(C)(C)[C@@H](C(=O)N[C@@H](Cc2ccc(-n3cc(CCCC[N+](C)(C)C)nn3)cc2)C(=O)N[C@@H](Cc2ccc3ccccc3c2)C(=O)NC2(C(=O)N[C@@H](CCCCNC(C)=O)C(=O)N[C@@H](CC(N)=O)C(=O)N[C@@H](Cc3cccnc3)C(=O)N(C)CC(N)=O)CCOCC2)NC1=O` [compound 425], the IC50 came out at 0.0017 µM.

For the molecule `CC(=O)N(C)CCCC[C@@H]1NC(=O)[C@H](Cc2c[nH]c3c(C)cccc23)NC(=O)[C@H]([C@@H](C)O)NC(=O)[C@H](CC(=O)N(C)C)NC(=O)[C@@H](NC(=O)CCOCCOCC[N+](C)(C)C)C(C)(C)SSC(C)(C)[C@@H](C(=O)N[C@@H](Cc2ccc(OCCN(C)CCC[N+](C)(C)CCCC[N+](C)(C)C)cc2)C(=O)N[C@@H](Cc2ccc3ccccc3c2)C(=O)NC2(C(=O)N[C@@H](CCCCN(C)C(C)=O)C(=O)N[C@@H](CC(N)=O)C(=O)N[C@@H](Cc3cccnc3)C(=O)N(C)CC(=O)N(C)C)CCOCC2)NC1=O` [compound 277, cPEG3aCO-Pen(3)-N(N(Me)2)-T-7MeW-K(NMeAc)-Pen(3)-AEF(SPD)-2Nal-THP-K(NMeAc)-N-3Pya-Sar-CON(Me)2], the IC50 was 0.0029 µM.

For the molecule `CC(=O)N(C)CCCC[C@@H]1NC(=O)[C@H](Cc2c[nH]c3c(C)cccc23)NC(=O)[C@H]([C@@H](C)O)NC(=O)[C@H](CC(=O)N(C)C)NC(=O)[C@@H](NC(=O)CCOCCOCC[N+](C)(C)C)C(C)(C)SSC(C)(C)[C@@H](C(=O)N[C@@H](Cc2ccc(OCCN(C)CCC[N+](C)(C)C)cc2)C(=O)N[C@@H](Cc2ccc3ccccc3c2)C(=O)NC2(C(=O)N[C@@H](CCCCN(C)C(C)=O)C(=O)N[C@@H](CC(N)=O)C(=O)N[C@@H](Cc3cccnc3)C(=O)N(C)CC(=O)N(C)C)CCOCC2)NC1=O` [compound 234, cPEG3aCO-Pen(3)-N(N(Me)2)-T-7MeW-K(NMeAc)-Pen(3)-AEF(MePrpa)-2Nal-THP-K(NMeAc)-N-3Pya-Sar-CON(Me)2], the IC50 was 0.0033 µM.

For the molecule `CC(=O)N[C@@H]1C(=O)N[C@@H](CC(=O)N(C)C)C(=O)N[C@@H]([C@@H](C)O)C(=O)N[C@@H](Cc2c[nH]c3c(C)cccc23)C(=O)N[C@@H](CCCCN(C)C(C)=O)C(=O)N[C@H](C(=O)N[C@@H](Cc2ccc(OCCN)cc2)C(=O)N[C@@H](Cc2ccc3ccccc3c2)C(=O)NC2(C(=O)N[C@@H](CCCCN(C)C(C)=O)C(=O)N[C@@H](CC(N)=O)C(=O)N[C@@H](Cc3cccnc3)C(=O)N(C)CC(N)=O)CCOCC2)C(C)(C)SSC1(C)C` [compound 182, MeCO-Pen(3)-N(N(Me)2)-T-7MeW-K(NMeAc)-Pen(3)-AEF-2Nal-THP-K(NMeAc)-N-3Pya-Sar-CONH2], the IC50 is 0.0017 µM.

For the molecule `CC(=O)NCCCC[C@@H]1NC(=O)[C@H](Cc2c[nH]c3c(C)cccc23)NC(=O)[C@H]([C@@H](C)O)NC(=O)[C@H](CC(N)=O)NC(=O)[C@@H](NC(=O)C(COCCOCC[N+](C)(C)C)NC(C)=O)C(C)(C)SSC(C)(C)[C@@H](C(=O)N[C@@H](Cc2ccc(OCCCCC[N+](C)(C)C)cc2)C(=O)N[C@@H](Cc2ccc3ccccc3c2)C(=O)NC2(C(=O)N[C@@H](CCC(=O)O)C(=O)N[C@@H](CC(N)=O)C(=O)N[C@@H](Cc3cccnc3)C(=O)N(C)CC(N)=O)CCOCC2)NC1=O` (mixture of isomers) [compound 555, MeCO-APEG2Ser(RS)-Pen(3)-N-T-7MeW-K(Ac)-Pen(3)-TMAPF-2Nal-THP-E-N-3Pya-Sar-CONH2], the IC50 was 0.0047 µM.

For the molecule `CC(=O)NCCCC[C@@H]1NC(=O)[C@H](Cc2c[nH]c3c(-c4cccc(NC(C)=O)c4)cccc23)NC(=O)[C@H]([C@@H](C)O)NC(=O)[C@H](CC(N)=O)NC(=O)[C@@H](NC(C)=O)C(C)(C)SSC(C)(C)[C@@H](C(=O)N[C@@H](Cc2ccc(OCCCCC[N+](C)(C)C)cc2)C(=O)N[C@@H](Cc2ccc3ccccc3c2)C(=O)NC2(C(=O)N[C@@H](CCCCNC(C)=O)C(=O)N[C@@H](CC(N)=O)C(=O)N[C@@H](Cc3cccnc3)C(=O)N(C)CC(N)=O)CCOCC2)NC1=O` [compound 452, MeCO-Pen(3)-N-T-7(3NAcPh)W-K(Ac)-Pen(3)-TMAPF-2Nal-THP-K(Ac)-N-3Pya-Sar-CONH2], the IC50 came to 0.0022 µM.

For `COCCOCCOCC[N+](C)(CCOCCOCCOC)CCOc1ccc(C[C@H](NC(=O)[C@H]2NC(=O)[C@H](CCCCN(C)C(C)=O)NC(=O)[C@H](Cc3c[nH]c4c(C)cccc34)NC(=O)[C@H]([C@@H](C)O)NC(=O)[C@H](CC(=O)N(C)C)NC(=O)[C@@H](NC(=O)CCOCCOCC[N+](C)(C)C)C(C)(C)SSC2(C)C)C(=O)N[C@@H](Cc2ccc3ccccc3c2)C(=O)NC2(C(=O)N[C@@H](CCCCN(C)C(C)=O)C(=O)N[C@@H](CC(N)=O)C(=O)N[C@@H](Cc3cccnc3)C(=O)N(C)CC(=O)N(C)C)CCOCC2)cc1` [compound 241, cPEG3aCO-Pen(3)-N(N(Me)2)-T-7MeW-K(NMeAc)-Pen(3)-AEF(NMeBismPEG3)-2Nal-THP-K(NMeAc)-N-3Pya-Sar-CON(Me)2], the IC50 stood at 0.0024 µM.

The assay is the same for the next values; noted with them: read-out: IL23R Reporter Assay (micromolar); HEK293 cells containing IL-23R, IL-12RP1 and STAT-inducible firefly luciferase reporter; 10 ng/mL IL-23 (EC90); 5 h at 37° C.
As to “C12gEPEG2PEG2CO-k(PEG2PEG2gEC12)-Pen(3)-N(N(Me)2)-t-7MeW-Dab(NMeAc)-Pen(3)-TMAPF-2Nal-THP-K(NMeAc)-N-3Pya-Sar-CON(Me)2 [compound 385]”, the IC50 turned out to be 0.1 µM.
